In article PMC7479175, “Selection of Potent Inhibitors of Soluble Epoxide Hydrolase for Usage in Veterinary Medicine” (Frontiers in Veterinary Science, 2020):
Values joined by “and” are separate entries in the source; they are usually repeats but may differ in a detail not shown here. Equal entries are not always repeated.

By UniProt entry, the sequences of proteins in these tests, tags left out. Residues count along the entry.
UniProt A0ABI7ZL20, 1-554: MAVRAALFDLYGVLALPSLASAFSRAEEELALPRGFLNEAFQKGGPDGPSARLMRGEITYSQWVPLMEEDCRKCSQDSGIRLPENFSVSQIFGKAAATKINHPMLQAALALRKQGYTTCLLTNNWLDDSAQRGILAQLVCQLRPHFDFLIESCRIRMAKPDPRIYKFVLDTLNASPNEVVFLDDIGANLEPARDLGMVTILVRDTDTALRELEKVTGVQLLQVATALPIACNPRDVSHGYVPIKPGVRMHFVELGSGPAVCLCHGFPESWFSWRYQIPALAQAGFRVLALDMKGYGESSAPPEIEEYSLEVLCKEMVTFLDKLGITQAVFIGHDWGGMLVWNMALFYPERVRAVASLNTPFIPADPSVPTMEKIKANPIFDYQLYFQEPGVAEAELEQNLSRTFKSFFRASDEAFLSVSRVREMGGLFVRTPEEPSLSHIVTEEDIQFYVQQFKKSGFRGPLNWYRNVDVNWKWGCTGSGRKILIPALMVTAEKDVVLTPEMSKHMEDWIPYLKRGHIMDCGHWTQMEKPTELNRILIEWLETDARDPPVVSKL
UniProt A0A8I3NJL8, 1-556: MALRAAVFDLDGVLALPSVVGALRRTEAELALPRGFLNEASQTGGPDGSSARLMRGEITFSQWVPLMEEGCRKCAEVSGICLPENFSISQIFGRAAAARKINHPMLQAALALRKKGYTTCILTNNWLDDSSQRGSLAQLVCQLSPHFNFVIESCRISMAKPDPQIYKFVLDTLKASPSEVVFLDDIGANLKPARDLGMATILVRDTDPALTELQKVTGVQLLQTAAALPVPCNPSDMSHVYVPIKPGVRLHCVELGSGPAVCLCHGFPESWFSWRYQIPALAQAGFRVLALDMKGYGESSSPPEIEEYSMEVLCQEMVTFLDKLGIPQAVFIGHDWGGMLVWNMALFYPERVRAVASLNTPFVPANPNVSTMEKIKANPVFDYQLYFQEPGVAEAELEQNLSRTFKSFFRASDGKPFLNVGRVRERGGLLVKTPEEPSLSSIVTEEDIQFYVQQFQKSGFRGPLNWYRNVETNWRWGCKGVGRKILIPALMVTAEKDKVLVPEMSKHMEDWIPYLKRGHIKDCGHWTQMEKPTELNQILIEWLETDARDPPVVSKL
UniProt F7C407, 1-555: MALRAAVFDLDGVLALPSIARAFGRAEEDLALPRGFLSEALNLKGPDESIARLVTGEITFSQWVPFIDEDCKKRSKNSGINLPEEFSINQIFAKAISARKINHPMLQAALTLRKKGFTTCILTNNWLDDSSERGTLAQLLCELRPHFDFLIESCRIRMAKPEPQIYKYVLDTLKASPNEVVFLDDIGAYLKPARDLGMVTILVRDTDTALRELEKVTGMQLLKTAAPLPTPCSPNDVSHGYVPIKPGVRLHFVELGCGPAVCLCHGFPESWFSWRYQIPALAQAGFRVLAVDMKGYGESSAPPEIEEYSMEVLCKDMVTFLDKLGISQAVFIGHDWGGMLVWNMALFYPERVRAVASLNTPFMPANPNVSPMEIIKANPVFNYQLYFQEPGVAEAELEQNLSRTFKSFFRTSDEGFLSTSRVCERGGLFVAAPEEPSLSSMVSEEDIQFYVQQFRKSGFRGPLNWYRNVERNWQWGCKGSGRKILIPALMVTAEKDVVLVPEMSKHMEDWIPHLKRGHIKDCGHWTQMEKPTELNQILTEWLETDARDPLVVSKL

Assays:
Type in all cases: biochemical
Cat sEH [1] = target: T1, Cat sEH (Felis catus, UniProt A0ABI7ZL20); experiment: Primary screen (end point) of the sEH inhibitor library, PHOME substrate; settings: [I] = 100 nM, primary end-point screening
Dog sEH [2] = target: T2, Dog sEH (Canis lupus familiaris, UniProt A0A8I3NJL8); experiment: as above; settings: [I] = 100 nM, primary end-point screening
Horse sEH [3] = target: T3, Horse sEH (Equus caballus, UniProt F7C407); experiment: as above; settings: [I] = 100 nM, primary end-point screening
Cat sEH [4] = target: T1, Cat sEH; experiment: Secondary screen (kinetic mode), PHOME substrate; settings: [I] = 100 nM, secondary kinetic mode screening
Dog sEH [5] = target: T2, Dog sEH; experiment: Secondary screen (kinetic mode), PHOME substrate; settings: [I] = 100 nM, secondary kinetic mode screening
Horse sEH [6] = target: T3, Horse sEH; experiment: Secondary screen (kinetic mode), PHOME substrate; settings: [I] = 100 nM, secondary kinetic mode screening

Row | SMILES | Cat sEH Inhibition (%) P. (Cat sEH [1]) [%] | Dog sEH Inhibition (%) P. (Dog sEH [2]) [%] | Horse sEH Inhibition (%) P. (Horse sEH [3]) [%] | Cat sEH Inhibition (%) S. (Cat sEH [4]) [%] | Dog sEH Inhibition (%) S. (Dog sEH [5]) [%] | Horse sEH Inhibition (%) S. (Horse sEH [6]) [%] | Cat sEH Inhibition (%) P. (Cat sEH [1]; 0.1 µM) | Horse sEH Inhibition (%) P. (Horse sEH [3]; 0.1 µM) | Cat sEH Inhibition (%) S. (Cat sEH [4]; 0.1 µM) | Dog sEH Inhibition (%) S. (Dog sEH [5]; 0.1 µM) | Horse sEH Inhibition (%) S. (Horse sEH [6]; 0.1 µM)
1 | COC(=O)c1cccc(C(=O)N2CCC(NC(=O)NC34CC5CC(CC(C5)C3)C4)CC2)c1 | 101 | < 90 | < 90 | 103 | 81 | 91 | – | – | – | – | –
2 | O=C(NCCC1CCCCC1)NC1CCCCC1 | – | < 90 | – | – | – | – | 95% and 100% | 103% and 102% | 99% and 94% | 75% and 80% | 89% and 86%
3 | O=C(Nc1ccc(OC(F)(F)F)cc1)N[C@H]1CC[C@@H](Oc2ccc(C(=O)O)cc2)CC1 (relative stereo) | – | – | – | – | – | – | 119% and 99% | – | 96% and 110% | – | –
4 | CCCCCCCCNC(=O)NC1CCN(C(=O)CC)CC1 | < 90 | 94 | < 90 | 90 | 82 | 90 | – | – | – | – | –
5 | CS(=O)(=O)NCCCCCOCCCCCNC(=O)NC12CC3CC(CC(C3)C1)C2 | 93 | < 90 | 95 | 91 | 94 | 84 | – | – | – | – | –
6 | O=C(NCCCc1ccccc1)NC12CC3CC(CC(C3)C1)C2 | – | – | 104 | – | – | – | 92% and 102% | – | 99% and 103% | 82% and 77% | 88% and 92%
7 | CCOCCOCCOc1cccc(NC(=O)NC23CC4CC(CC(C4)C2)C3)c1 | 101 | 90 | 110 | 99 | 87 | 92 | – | – | – | – | –
8 | O=C(Nc1ccc(OC(F)(F)F)c(F)c1)N[C@H]1CC[C@H](Oc2ccc(C(=O)O)cc2)CC1 (relative stereo) | 106 | 91 | 102 | 101 | 82 | 96 | – | – | – | – | –
9 | O=C(NC1CCCCC1)NC12CC3CC(CC(C3)C1)C2 | < 90 | < 90 | 102 | 108 | 85 | 87 | – | – | – | – | –
10 | CC(C)(C)OC(=O)N1CCC(NC(=O)NC23CC4CC(CC(C4)C2)C3)CC1 | 93 | 93 | 103 | 99 | 86 | 89 | – | – | – | – | –
11 | O=C(NCCCC(=O)OCc1ccccc1)NC12CC3CC(CC(C3)C1)C2 | 102 | < 90 | 99 | 98 | 96 | 89 | – | – | – | – | –
12 | NS(=O)(=O)c1ccc(-n2nc(CCCNC(=O)NC3CCCCCC3)cc2-c2ccccc2)cc1 | 109 | 93 | 98 | 103 | 89 | 95 | – | – | – | – | –
13 | Cc1ccc(S(=O)(=O)N2CCC(C(=O)NC3CCCCCCC3)CC2)c(C)c1 | 96 | 98 | 100 | 99 | 95 | 89 | – | – | – | – | –
14 | CC(C)c1cccc(C(C)(C)NC(=O)NCC2CCN(C(=O)OC(C)(C)C)CC2)c1 | 102 | < 90 | 103 | 90 | 81 | 96 | – | – | – | – | –
15 | O=C(Nc1ccc(OC(F)(F)F)cc1)N[C@H]1CC[C@H](Oc2ccc(-c3nnn[nH]3)cc2)CC1 (relative stereo) | 100 | 92 | 105 | 100 | 84 | 92 | – | – | – | – | –
16 | CNC(=O)c1ccc(O[C@H]2CC[C@H](NC(=O)NC34CC5CC(CC(C5)C3)C4)CC2)cc1 (relative stereo) | < 90 | 92 | 90 | 102 | 83 | 88 | – | – | – | – | –

Row | SMILES | Cat sEH Inhibition (%) P. (Cat sEH [1]) [%] | Dog sEH Inhibition (%) P. (Dog sEH [2]) [%] | Horse sEH Inhibition (%) P. (Horse sEH [3]) [%] | Cat sEH Inhibition (%) S. (Cat sEH [4]) [%] | Dog sEH Inhibition (%) S. (Dog sEH [5]) [%] | Horse sEH Inhibition (%) S. (Horse sEH [6]) [%] | Cat sEH Inhibition (%) P. (Cat sEH [1]; 0.1 µM) | Horse sEH Inhibition (%) P. (Horse sEH [3]; 0.1 µM) | Cat sEH Inhibition (%) S. (Cat sEH [4]; 0.1 µM) | Dog sEH Inhibition (%) S. (Dog sEH [5]; 0.1 µM) | Horse sEH Inhibition (%) S. (Horse sEH [6]; 0.1 µM)
17 | O=C(Nc1ccc(Cl)c(C(F)(F)F)c1)N[C@H]1CC[C@H](Oc2ccc(C(=O)O)cc2)CC1 (relative stereo) | 100 | 97 | 106 | 104 | 84 | 93 | – | – | – | – | –
18 | O=C(NCCCCCOCCCCCOCC(F)(F)F)NC12CC3CC(CC(C3)C1)C2 | 97 | 90 | 104 | 100 | 80 | 88 | – | – | – | – | –
19 | CCCCCOC1CCC(NC(=O)NC23CC4CC(CC(C4)C2)C3)CC1 (stereo not drawn) | < 90 | < 90 | 97 | 94 | 88 | 80 | – | – | – | – | –
20 | CCCCCOC(=O)CCCNC(=O)NC12CC3CC(CC(C3)C1)C2 | 98 | < 90 | 98 | 100 | 80 | 87 | – | – | – | – | –
21 | Cc1ccc(S(=O)(=O)N2CCC(C(=O)NCC3CCCCC3)CC2)c(C)c1 | 98 | 109 | 103 | 101 | 88 | 97 | – | – | – | – | –
22 | NC(=O)CCCCCCCCCCCNC(=O)NC12CC3CC(CC(C3)C1)C2 | – | 99 | 105 | 98 | 85 | 91 | – | – | – | – | –
23 | O=C(NC1CCC(Oc2cccc(C(=O)O)c2)CC1)NC12CC3CC(CC(C3)C1)C2 (stereo not drawn) | 95 | 90 | 99 | 99 | 91 | 91 | – | – | – | – | –
24 | O=C(O)CCCCCCCCCCCNC(=O)Nc1ccc(OC(F)(F)F)cc1 | 93 | < 90 | < 90 | 102 | 86 | 85 | – | – | – | – | –
25 | O=C(NC12CC3CC(CC(C3)C1)C2)N[C@H]1CC[C@@H](Nc2ccc(F)cc2)CC1 (relative stereo) | 92 | 90 | 93 | 92 | 80 | 88 | – | – | – | – | –
26 | CCOC(=O)C(C(=O)OCC)=C1CCC(NC(=O)NC23CC4CC(CC(C4)C2)C3)CC1 (stereo not drawn) | 103 | 88 | 115 | 94 | 82 | 88 | – | – | – | – | –
27 | CCOC(=O)c1ccc(COC(=O)CCCNC(=O)NC23CC4CC(CC(C4)C2)C3)cc1 | < 90 | 90 | < 90 | 100 | 95 | 91 | – | – | – | – | –
28 | O=C(Nc1ccc(F)c(C(F)(F)F)c1)N[C@H]1CC[C@H](Oc2ccc(C(=O)O)cc2)CC1 (relative stereo) | 99 | 91 | 99 | 103 | 83 | 88 | – | – | – | – | –
29 | O=C(NC1CCC(Oc2ccc(CO)cc2)CC1)NC12CC3CC(CC(C3)C1)C2 (stereo not drawn) | 96 | < 90 | 91 | 104 | 80 | 90 | – | – | – | – | –
30 | O=C(CCCCCCCCCCCNC(=O)NC12CC3CC(CC(C3)C1)C2)NO | 102 | 91 | < 90 | 99 | 80 | 90 | – | – | – | – | –
31 | CC(=O)N1CCN(CCCCOc2cccc(NC(=O)NC34CC5CC(CC(C5)C3)C4)c2)CC1 | 93 | 91 | 100 | 98 | 81 | 95 | – | – | – | – | –
